This is an account of results in paper PMC3683333, “^11C-LY2428703, a positron emission tomographic radioligand for the metabotropic glutamate receptor 1, is unsuitable for imaging in monkey and human brains” (EJNMMI Research, 2013).

The chains behind the UniProt entries cited, without tags or fusion partners. Residues count along the entry.
UniProt Q13255, 19-1194 limits assumed: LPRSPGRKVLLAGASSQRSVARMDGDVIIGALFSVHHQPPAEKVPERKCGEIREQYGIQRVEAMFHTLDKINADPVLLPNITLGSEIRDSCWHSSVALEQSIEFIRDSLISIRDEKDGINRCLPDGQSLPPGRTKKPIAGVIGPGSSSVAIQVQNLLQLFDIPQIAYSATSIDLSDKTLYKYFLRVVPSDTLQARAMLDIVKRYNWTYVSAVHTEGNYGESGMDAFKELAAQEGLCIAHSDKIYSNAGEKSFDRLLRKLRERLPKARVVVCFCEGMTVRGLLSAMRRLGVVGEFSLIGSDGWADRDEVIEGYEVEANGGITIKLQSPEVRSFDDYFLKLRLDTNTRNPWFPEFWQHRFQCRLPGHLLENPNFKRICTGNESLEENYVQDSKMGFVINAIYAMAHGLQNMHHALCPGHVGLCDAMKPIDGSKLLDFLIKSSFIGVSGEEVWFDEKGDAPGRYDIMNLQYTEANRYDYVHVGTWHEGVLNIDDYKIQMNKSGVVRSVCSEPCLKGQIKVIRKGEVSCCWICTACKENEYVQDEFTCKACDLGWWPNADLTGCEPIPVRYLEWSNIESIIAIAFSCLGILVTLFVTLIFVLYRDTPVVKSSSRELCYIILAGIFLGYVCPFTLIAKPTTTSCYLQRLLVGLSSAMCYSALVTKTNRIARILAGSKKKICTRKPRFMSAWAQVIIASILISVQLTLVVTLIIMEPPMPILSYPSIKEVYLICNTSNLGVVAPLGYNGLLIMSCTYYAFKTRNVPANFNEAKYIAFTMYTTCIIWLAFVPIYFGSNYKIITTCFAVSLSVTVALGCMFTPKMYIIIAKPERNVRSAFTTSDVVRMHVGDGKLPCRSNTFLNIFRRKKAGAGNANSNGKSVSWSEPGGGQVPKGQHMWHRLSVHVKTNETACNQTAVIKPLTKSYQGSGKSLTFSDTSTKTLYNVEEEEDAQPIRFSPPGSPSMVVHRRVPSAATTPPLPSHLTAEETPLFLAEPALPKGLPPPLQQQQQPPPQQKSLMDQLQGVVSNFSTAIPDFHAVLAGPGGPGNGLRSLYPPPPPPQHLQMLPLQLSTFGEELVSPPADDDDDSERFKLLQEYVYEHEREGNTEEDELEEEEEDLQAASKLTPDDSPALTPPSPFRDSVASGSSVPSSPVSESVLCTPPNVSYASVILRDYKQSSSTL
UniProt I2CU04, 19-1195 limits assumed: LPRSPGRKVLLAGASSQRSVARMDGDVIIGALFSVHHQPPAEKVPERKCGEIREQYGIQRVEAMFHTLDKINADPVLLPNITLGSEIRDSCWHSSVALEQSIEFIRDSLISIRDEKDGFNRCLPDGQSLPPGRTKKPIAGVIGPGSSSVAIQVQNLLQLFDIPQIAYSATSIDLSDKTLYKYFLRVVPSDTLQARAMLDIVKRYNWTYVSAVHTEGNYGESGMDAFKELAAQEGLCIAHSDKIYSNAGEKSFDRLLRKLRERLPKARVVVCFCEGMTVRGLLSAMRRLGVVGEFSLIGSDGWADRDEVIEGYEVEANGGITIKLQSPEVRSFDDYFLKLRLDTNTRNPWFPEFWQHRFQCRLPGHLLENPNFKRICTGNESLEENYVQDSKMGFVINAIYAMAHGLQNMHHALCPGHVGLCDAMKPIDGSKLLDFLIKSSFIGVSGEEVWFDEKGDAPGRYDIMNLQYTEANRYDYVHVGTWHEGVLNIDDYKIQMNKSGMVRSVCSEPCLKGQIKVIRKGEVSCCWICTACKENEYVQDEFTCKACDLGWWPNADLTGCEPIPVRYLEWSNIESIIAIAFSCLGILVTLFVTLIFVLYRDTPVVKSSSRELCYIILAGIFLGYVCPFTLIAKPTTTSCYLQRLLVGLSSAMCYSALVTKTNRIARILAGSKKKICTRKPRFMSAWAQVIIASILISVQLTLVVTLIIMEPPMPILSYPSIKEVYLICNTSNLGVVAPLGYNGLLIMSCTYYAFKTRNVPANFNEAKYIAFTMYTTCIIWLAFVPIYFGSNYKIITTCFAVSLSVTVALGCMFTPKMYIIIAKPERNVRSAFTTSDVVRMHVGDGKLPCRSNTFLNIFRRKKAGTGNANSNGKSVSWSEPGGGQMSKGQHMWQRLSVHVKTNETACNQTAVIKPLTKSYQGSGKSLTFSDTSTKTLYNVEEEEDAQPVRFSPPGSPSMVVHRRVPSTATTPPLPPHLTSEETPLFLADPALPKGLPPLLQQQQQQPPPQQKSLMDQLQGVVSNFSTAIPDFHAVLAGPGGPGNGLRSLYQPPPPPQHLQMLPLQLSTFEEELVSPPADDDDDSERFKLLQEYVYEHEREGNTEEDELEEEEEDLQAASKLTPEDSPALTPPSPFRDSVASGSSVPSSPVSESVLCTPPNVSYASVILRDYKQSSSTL
UniProt P23385, 19-1199 limits assumed: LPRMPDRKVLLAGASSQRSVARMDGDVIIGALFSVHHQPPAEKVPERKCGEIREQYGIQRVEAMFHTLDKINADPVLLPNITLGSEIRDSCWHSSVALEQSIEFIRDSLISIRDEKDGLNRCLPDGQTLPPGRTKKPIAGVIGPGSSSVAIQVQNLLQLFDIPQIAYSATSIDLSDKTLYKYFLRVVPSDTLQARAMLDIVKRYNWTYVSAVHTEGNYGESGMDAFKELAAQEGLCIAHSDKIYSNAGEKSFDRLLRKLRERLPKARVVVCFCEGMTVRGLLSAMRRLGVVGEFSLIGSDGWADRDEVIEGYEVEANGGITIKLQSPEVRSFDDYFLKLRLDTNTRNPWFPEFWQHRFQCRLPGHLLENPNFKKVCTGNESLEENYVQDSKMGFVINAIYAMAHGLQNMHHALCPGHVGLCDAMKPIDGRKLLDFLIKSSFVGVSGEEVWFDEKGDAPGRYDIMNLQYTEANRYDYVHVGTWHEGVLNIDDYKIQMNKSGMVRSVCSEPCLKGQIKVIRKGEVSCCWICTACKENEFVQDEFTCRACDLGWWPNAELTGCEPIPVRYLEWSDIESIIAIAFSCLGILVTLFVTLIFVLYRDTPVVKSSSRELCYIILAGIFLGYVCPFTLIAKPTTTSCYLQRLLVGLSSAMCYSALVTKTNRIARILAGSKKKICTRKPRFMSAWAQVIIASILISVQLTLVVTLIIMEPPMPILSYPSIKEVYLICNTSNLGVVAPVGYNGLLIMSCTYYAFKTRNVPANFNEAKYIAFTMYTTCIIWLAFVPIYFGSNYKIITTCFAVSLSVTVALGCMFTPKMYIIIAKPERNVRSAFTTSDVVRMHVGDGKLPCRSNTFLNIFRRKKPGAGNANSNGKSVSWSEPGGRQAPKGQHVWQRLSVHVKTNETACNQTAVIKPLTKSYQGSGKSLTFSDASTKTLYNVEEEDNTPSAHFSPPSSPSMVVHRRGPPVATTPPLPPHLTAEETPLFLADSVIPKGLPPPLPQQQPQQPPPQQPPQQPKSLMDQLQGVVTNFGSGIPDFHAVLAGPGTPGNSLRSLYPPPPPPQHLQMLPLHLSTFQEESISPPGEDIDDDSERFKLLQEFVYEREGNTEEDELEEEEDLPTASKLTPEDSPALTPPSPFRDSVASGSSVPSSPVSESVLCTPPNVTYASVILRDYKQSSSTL

In general, Kd refers to the equilibrium constant for the complex coming apart.

“And” between values parts separate entries of the source, which are not always exact repeats. Equal entries are not always repeated.

In assay [1] the target is mGluR1 (Homo sapiens, UniProt Q13255). Description: Saturation binding assay with [^3H]LY456066, human cerebellar membranes. The settings on record: human cerebellar tissue; tested as the radiolabelled form.
For assay [2], the target named is mGluR1 (Macaca mulatta, UniProt I2CU04). As to the kind of experiment: Saturation binding assay with [^3H]LY456066, monkey cerebellar membranes. The settings on record: monkey cerebellar tissue; tested as the radiolabelled form.
Assay [3] deals with mGluR1 (Rattus norvegicus, UniProt P23385). As to the kind of experiment: Saturation binding assay with [^3H]LY456066, rat cerebellar membranes. The conditions noted are these: rat cerebellar tissue; tested as the radiolabelled form.

As for `OCCSc1nc2c(c(NC3Cc4ccccc4C3)n1)CCCC2`, the Bmax in assay [1] is 186 nM and 186 ± 11.6 (4) nM; in assay [2], 120 nM and 120 ± 8.6 (3) nM; in assay [3] it was 167 nM and 167 ± 24 (3) nM. Besides, the Kd in assay [1] was 11 nM; in assay [2], 6.6 nM; in assay [3], 6.6 nM.
